Data on 1 molecule can be found in patent publication EP4755401A1, “PHARMACEUTICAL COMPOSITION CONTAINING ANTIBODY-DRUG CONJUGATE OF GLUCOCORTICOID” (Jiangsu Hengrui Pharmaceuticals Co., Ltd., priority 2023, dated 2025).

Experiment [1] deals with T1, Biotin-labeled human-derived IL-4Rα protein (SinoBiological, CAT# 10402-H08H-B) (human, UniProt P24394 26-232, biotin-labeled (site not stated)).
T1 construct: Bought reagent, captured on an SA sensor chip; also called hIL-4Rα; human-derived IL-4Rα antigen protein
T1 sequence (looked up): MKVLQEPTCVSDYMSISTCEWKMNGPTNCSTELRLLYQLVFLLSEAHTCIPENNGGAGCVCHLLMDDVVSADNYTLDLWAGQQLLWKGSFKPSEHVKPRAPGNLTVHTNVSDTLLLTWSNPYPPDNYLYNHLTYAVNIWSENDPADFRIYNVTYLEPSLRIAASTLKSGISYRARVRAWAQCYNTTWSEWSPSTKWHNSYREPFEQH
As to the kind of experiment: SPR, Biacore 8K, biotin-hIL-4Rα captured on SA chip, test protein as analyte.

For experiment [2], the target named is T2, human-derived IL-4Rα on expressing cells (human, UniProt P24394 26-825).
T2 construct: whole, on cells; TF-1 and Karpas 299 cell lines were identified to express IL-4Rα; Also used here as the target of the HEK-Blue IL-4/IL-13 reporter assay; also called IL-4Rα expressed on TF-1 cells
T2 sequence (looked up): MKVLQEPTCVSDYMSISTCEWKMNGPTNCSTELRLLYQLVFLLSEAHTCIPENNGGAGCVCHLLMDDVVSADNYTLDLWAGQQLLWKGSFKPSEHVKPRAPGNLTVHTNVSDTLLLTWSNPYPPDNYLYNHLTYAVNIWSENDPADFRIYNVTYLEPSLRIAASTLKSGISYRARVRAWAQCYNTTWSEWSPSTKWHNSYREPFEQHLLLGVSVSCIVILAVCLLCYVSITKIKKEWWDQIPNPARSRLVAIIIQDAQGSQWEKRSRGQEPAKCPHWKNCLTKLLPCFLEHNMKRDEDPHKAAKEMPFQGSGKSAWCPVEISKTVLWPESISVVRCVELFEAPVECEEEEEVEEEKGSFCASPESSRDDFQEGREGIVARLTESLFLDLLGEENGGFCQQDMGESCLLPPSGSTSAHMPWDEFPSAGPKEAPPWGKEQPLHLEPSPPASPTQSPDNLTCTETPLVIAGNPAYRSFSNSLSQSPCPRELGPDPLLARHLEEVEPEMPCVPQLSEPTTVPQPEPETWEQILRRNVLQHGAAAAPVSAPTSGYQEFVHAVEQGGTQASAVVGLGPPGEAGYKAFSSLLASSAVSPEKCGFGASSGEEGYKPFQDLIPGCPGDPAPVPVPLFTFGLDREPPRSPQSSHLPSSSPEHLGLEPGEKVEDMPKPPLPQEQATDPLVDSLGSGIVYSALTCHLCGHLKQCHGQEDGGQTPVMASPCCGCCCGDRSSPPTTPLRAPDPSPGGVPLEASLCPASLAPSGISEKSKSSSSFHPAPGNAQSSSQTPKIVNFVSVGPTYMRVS
As to the kind of experiment: flow cytometry on TF-1 cells expressing IL-4Rα, anti-hFab-FITC detection.

B1: antibody-drug conjugate ADC-2 (Fab, V domains shown)
VH: EVQLVESGGGLVQPGGSLRLSCAASGFTFSDYGMHWVRQAPGKGLEWVAFISSGSSIIYYADIVKGRSTISRDNAKNTLYLQMNSLRAEDTAVYYCTRGNKRGFFDYWGQGTLVTVSS
VL: EIVLTQSPATLSLSPGERATLSCRASSSVPYMYWYQQKPGQAPRLLIYLTSNLASGIPARFSGSGSGTDFTLTISSLEPEDFAVYYCQQWRAYPPMLTFGGGTKVEIKR
modifications: budesonide drug-linker (compound 2, maleimide) conjugated after TCEP reduction of 25G7-Fab; conjugated residues and drug load not stated
B1 came in with a Kd in experiment [1] of 0.011 nM. The same molecule displayed an EC50 in experiment [2] of 0.107 nM.
